Data: US10005829B2, “Synthetic linear apelin mimetics for the treatment of heart failure” (priority 2012, dated 2018)

Assay: Surrogate activity-based plasma stability assay
Format: in vitro ADME
Details: 5% rat plasma, 37° C., EC50 at t0 and t24 hrs; Table 2

Substance: Albumin-TPA-O2Oc-O2Oc-O2Oc-O2Oc-Q-R-P-R-L-a-H-K-G-P-f-a-f-OH [Example 64]
- Surrogate activity-based Plasma stability t½: >1000 min
